According to ChEMBL document CHEMBL2331332 (J Med Chem, 2013):

Key:
[1] = test system: Prostaglandin G/H synthase 2 (COX-2); assay: Inhibition of COX-2 (unknown origin)-mediated TMPD oxidation using PGG2 as substrate at 100 uM incubated 15 mins prior to substrate addition measured after 36 secs by spectrophotometric analysis; settings: Homo sapiens
[2] = test system: Prostaglandin G/H synthase 1 (COX-1); assay: Inhibition of COX-1 (unknown origin)-mediated TMPD oxidation using PGG2 as substrate at 100 uM incubated 15 mins prior to substrate addition measured after 36 secs by spectrophotometric analysis; settings: Homo sapiens

Cc1cc(C)c2oc(-c3ccc(C)c(NC(=O)c4cccc([N+](=O)[O-])c4)c3)nc2c1
inhibition [1]: 17.3% | inhibition [2]: < 1%

CC(c1ccccc1)N1C(=O)c2ccc(C(=O)Nc3cc(Cl)ccc3C(=O)O)cc2C1=O (centres undefined)
inhibition [1]: 8.2% | inhibition [2]: 3.8%
